Tested on: HER2^+ 2170 and HER2^− 827 human lung cancer tumors
Assay: Small animal PET/CT imaging of HER2+/− tumors in nude mice
Type: in vivo
Details: prepared with ^89ZrCl4; images at 144 h post-injection

Substance: ^89Zr-DFO-Trastuzumab: trastuzumab (TmAb) conjugated to DFO and radiolabeled with ^89Zr using ^89Zr-OX or ^89ZrCl4
- antibody function in vivo, PET imaging of HER2+/− tumors: does not hinder antibody function in vivo

Source: US10758634B2, “Compounds, compositions and associated methods using zirconium-89 in immuno-positron emission tomography” (Wake Forest University, priority 2016, dated 2020)
